{
  "sequences": {"note": "Amino acid sequences for entries named in this document (tags omitted). A change or cut given only in a name is not applied to a line headed by its entry.", "UniProt P20618": "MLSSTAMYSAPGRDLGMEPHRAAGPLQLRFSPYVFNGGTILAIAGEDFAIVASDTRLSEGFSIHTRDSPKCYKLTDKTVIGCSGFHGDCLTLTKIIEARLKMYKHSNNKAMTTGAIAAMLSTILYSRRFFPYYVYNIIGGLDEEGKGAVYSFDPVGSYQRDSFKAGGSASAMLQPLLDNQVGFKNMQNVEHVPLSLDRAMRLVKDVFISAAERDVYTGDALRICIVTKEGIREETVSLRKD", "UniProt P28062": "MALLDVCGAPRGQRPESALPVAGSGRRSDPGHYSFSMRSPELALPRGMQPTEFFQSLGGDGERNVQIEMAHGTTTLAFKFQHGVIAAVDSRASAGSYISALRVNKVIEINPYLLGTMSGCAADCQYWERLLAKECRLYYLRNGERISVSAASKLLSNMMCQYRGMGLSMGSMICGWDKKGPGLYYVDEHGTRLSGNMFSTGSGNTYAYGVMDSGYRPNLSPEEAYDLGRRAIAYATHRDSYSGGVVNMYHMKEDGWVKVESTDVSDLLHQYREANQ"},
  "source": "paper PMC8837819",
  "about": "“Syrbactin-class dual constitutive- and immuno-proteasome inhibitor TIR-199 impedes myeloma-mediated bone degeneration in vivo” (Bioscience Reports, 2022)",
  "molecular_target": "PSMB8-FLAG (immunoproteasome) (Homo sapiens, UniProt P20618+P28062)",
  "experiment": "Immunoproteasome activity assay on immunoprecipitated PSMB8-FLAG (Ac-ANW-AMC)",
  "conditions": "100 nM for 30 min, n=3",
  "data": [
    {"smiles": "COc1ccc(C[C@H](NC(=O)[C@H](C)NC(=O)CN2CCOCC2)C(=O)N[C@@H](Cc2ccccc2)C(=O)C2(C)CO2)cc1", "note": "(stereo in doubt) [ONX-0914, reference compound]", "values": [
      {"measurement": "PSMB8 activity at single concentration", "result": "inhibited PSMB8 potently"}
    ]}
  ]
}
